Assay results published in patent publication US9789156B2, “Combination anti-human epidermal growth factor receptor 2 (anti-HER2) cancer therapy using mucin 1 (MUC1) peptides and hemotherapeutics” (DANA-FARBER CANCER INSTITUTE, INC., priority 2013, dated 2017).

Key:
Assay type in all cases: cell-based, human
SKBR3R cells [1] = tested on: SKBR3R cells
Protocol: (§1) Cell culture. SKBR3 and BT474 cells were obtained from ATCC (Rockville, Md.). SKBR3 and BT474 were maintained in McCoy's 5a modified medium and Dulbecco's modified Eagle medium/Ham F12 (1:1) supplemented with 10% heat-inactivated FBS, 100 units/ml penicillin, […] streptomycin, and 2 mM L-glutamine. […] Cells were treated with GO-203 and CP-2 peptides (AnaSpec). […] Viability was determined by trypan blue exclusion.
(§2) Determination of IC50 and synergism. Cells were seeded on 96-well plates in 100 μl of growth medium at a density of 3000 cells per well. After 24 h, the cells were exposed to drugs in treatment medium for an additional 72 h. Cell viability was assessed using the alamar blue viability assay (Invitrogen). Triplicate wells of each treatment were analyzed and each experiment was done three times. The IC50 values were determined by nonlinear regression of the dose-response data using Prism 5.0 for Mac OSX (GraphPad Software). […] Cell viability was determined after treatment for 72 h. The combination index (CI) was calculated to determine the presence of synergism (CI<1) or antagonism (CI>1) using CalcuSyn software (Biosoft).
(§3) Assessment of drug interaction by Bliss independence. […] Using this equation, if the experimentally measured inhibition is greater than Ei, then the combination is synergistic.38 Plots were generated by Prism GraphPad software.

BT474R cells = tested on: BT474R cells
Protocol: as §1, §2, §3

SKBR3R cells [2] = test: Cell number by Trypan blue staining; conditions: 80 nM trastuzumab, 72 h
Protocol: (FIG. 3A) SKBR3 (left) and SKBR3R (right) cells (1×10^4 per well) were left untreated or treated with 80 nM trastuzaumb for 72 h. Cell number (mean±s.e. of three determinations) was determined by Trypan blue staining. (FIG. 3B) Lysates from SKBR3 and SKBR3R cells were immunoblotted (IB) with the indicated antibodies. (FIG. 3C) Anti-MUC1-C precipitates from SKBR3 and SKBR3R cells were immunoblotted with the indicated antibodies. […] Cell number (mean±s.e. of three determinations) was determined by Trypan blue staining. (FIG. 3E) Lysates from BT474 and BT474R cells were immunoblotted with the indicated antibodies. (FIG. 3F) Anti-MUC1-C precipitates from BT474 and BT474R cells were immunoblotted with the indicated antibodies. IP, immunoprecipitated.
FIGS. 5A-G. Targeting MUC1-C in trastuzumab-resistant cells suppresses HER3 activation and inhibits growth and clonogenic survival. […] The colony number is expressed as the mean±s.e. of three replicates. […] Cell number (mean±s.e. of three determinations) was determined by Trypan blue staining. […] Cell number (mean±s.e. of three determinations) was determined by Trypan blue staining. […] The results are expressed as tumor volume (mean±s.e. for the eight mice in each group).
Cell culture. […] Viability was determined by trypan blue exclusion.

BT474 cells = conditions: 72 h, read-out: IC50 Values, Trasutuzumab
Protocol: as §1, §2

Molecule | IC50 for trastuzumab, in words (SKBR3R cells [1]; SKBR3R cells (trastuzumab-resistant)) | cell growth inhibition, in words (SKBR3R cells [1]; SKBR3R cells, 72 h, GO-203 alone, trastuzumab alone at 40 nM, or both) | IC50 for trastuzumab, in words (BT474R cells; BT474R cells (trastuzumab-resistant)) | cell growth (cell number) (SKBR3R cells [2]) | IC50 (BT474 cells) [nM] | Fold Change (SKBR3R cells [1]; SKBR3R cells, lapatinib IC50 alone vs with GO-203) | Fold Change (SKBR3R cells [1]; SKBR3R cells, lapatinib IC50 alone vs with trastuzumab and GO-203) | Fold Change (BT474R cells; BT474R cells, lapatinib IC50 alone vs with trastuzumab and GO-203)
Trastuzumab: humanized monoclonal antibody that binds to the HER2 extracellular domain | no definable IC50 | no effect | no definable IC50 | not inhibited | 133 | – | – | –
CS(=O)(=O)CCNCc1ccc(-c2ccc3ncnc(Nc4ccc(OCc5cccc(F)c5)c(Cl)c4)c3c2)o1 [Lapatinib] | – | – | – | – | – | 1.45 | 1.82 | 6.8

Read-outs that look alike come from different tables or passages of the source.
